Assay results published in ChEMBL document CHEMBL1155805, “Synthesis of new arylpiperazinylalkylthiobenzimidazole, benzothiazole, or benzoxazole derivatives as potent and selective 5-HT1A serotonin receptor ligands” (J Med Chem, 2008).

By UniProt entry, the sequences of proteins in these tests, tags left out.
UniProt P19327, whole entry: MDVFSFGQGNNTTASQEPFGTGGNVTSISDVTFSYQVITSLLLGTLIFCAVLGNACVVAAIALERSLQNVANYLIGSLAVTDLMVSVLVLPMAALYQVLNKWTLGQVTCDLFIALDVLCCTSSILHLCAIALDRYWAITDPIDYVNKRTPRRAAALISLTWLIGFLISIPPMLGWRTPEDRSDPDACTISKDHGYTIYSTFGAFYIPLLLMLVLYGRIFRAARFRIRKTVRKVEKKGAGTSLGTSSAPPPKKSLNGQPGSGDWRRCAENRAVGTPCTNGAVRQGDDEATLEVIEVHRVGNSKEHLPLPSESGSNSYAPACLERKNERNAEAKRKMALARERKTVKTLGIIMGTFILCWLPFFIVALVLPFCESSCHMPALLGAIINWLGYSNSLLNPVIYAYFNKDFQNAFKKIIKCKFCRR

Biological target: 5-hydroxytryptamine receptor 1A (Rattus norvegicus, UniProt P19327)
Assay: Agonist activity at 5HT1A receptor in CRL:CD(SD)BR-COBS rat hippocampus assessed as increase in [35S]GTPgammaS binding
Assay type: functional, tissue-based
How it was run: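 Rat hippocampal membranes (200 µg protein/sample), washed in 50 mM Tris·HCl and resuspended in pH 7.7 Tris with 10 µM pargyline and 4 mM CaCl2. Graded drug concentrations were applied, with 20 min preincubation at 37 °C, then 45 min at 37 °C with 0.1 nM [35S]GTPγS. Nonspecific binding was set with 10 µM GTPγS, followed by GF/B filtration. EC50 and Emax (vs 5-HT) came from curve fitting. Mean ± SD, three experiments.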

`NCCc1c[nH]c2ccc(O)cc12` [SEROTONIN] was tested. Which EC50 did it give?
Its EC50 is 323 nM.
